Test results as given in patent publication US10065948B2, “Histone deacetylase inhibitors and compositions and methods of use thereof” (CHDI Foundation, Inc., priority 2014, dated 2018).

Protein sequences, listed by entry. Tags and fused reporters are not part of them. Residues count along the entry.
UniProt P56524, 648-1032: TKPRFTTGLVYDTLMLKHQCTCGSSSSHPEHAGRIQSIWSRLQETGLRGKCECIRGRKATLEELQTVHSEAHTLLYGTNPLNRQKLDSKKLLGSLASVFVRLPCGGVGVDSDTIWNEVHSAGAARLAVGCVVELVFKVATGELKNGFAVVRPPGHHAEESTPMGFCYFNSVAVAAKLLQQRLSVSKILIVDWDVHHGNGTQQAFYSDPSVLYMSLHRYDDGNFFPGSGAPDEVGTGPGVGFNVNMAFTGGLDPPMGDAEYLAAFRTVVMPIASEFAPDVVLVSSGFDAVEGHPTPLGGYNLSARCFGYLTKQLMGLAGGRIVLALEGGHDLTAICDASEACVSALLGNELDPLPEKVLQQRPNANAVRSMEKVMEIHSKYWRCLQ

Assays:
[1] = tested on: cellular histone deacetylase enzymatic activity in Jurkat E6-1 cells; experiment: Inhibition of cellular HDAC activity, Boc-Lys(Tfa)-AMC substrate (Cell Lys-TFA); assay type: cell-based
Description: The potency of the compounds is quantified by measuring the cellular histone deacetylase enzymatic activity using the fluorogenic substrate, Boc-Lys(Tfa)-AMC. After penetration in Jurkat E6-1 cells, the substrate is deacetylated to Boc-Lys-AMC. After cell lysis and cleavage by trypsin, the fluorophore AMC is released from the deacetylated substrate only. The fluorescence of the sample is directly related to the histone deacetylase activity in the sample.
Jurkat E6.1 cells are cultured according to standard cell culture protocols in Jurkat E6.1 Growth Media (RPMI without phenol red, 10% FBS, 10 mM HEPES, and 1 mM Sodium Pyruvate). Jurkat E6.1 cells are counted using a Coulter Counter and resuspended in Jurkat E6.1 growth media at a concentration of 75,000 cells/35 μL. 35 μL or 75,000 cells is seeded into Greiner microtitre assay plates. The plates are then incubated at 37° C. and 5% CO2 while other assay components are being prepared. […]
5 μL of each solution of 1:20 diluted compound from above is transferred to the Greiner microtitre assay plates with 75,000 cells/well using the Bravo. […] Finally the top read fluorescence (Excitation: 355 nm, Emission: 460 nm) is measured using PerkinElmer EnVision.

[2] = biological target: Histone Deacetylase 4 (HDAC4) catalytic domain (Homo sapiens (Human), UniProt P56524); experiment: Biochemical HDAC inhibition assay, fluorogenic substrate Boc-Lys(Tfa)-AMC
Description: The potency of compounds is quantified by measuring the Histone Deacetylase 4 (HDAC4) catalytic domain enzymatic activity using the fluorogenic substrate, Boc-Lys(Tfa)-AMC. The substrate is deacetylated to Boc-Lys-AMC by HDAC4. Cleavage by trypsin results in the release of the fluorophore AMC from the deacetylated substrate. The fluorescence of the sample is directly related to the histone deacetylase activity in the sample.
Stocks of 60 μL aliquots of the 10 mM compound in DMSO are prepared and stored at −20° C. From one stock aliquot of each compound to be tested and the reference compound, a 16-point serial dilution is prepared according to Table 1 using a 125 μL 16-channel Matrix multi-channel pipette (Matrix Technologies Ltd).
2 μL (200×) of each diluted solution and each control (full activity: 100% DMSO alone or full inhibition 1 mM) is stamped into V-bottomed polypropylene 384-well compound plates using either the Bravo (384-well head from Agilent) or 12.5 μL 16-channel Matrix multi-channel pipette (Matrix Technologies Ltd). Each well with the 200× compound solution is diluted 1:20 by the addition of 38 μL assay buffer+DMSO (10.5% DMSO, 45 mM Tris-HCl, 123 mM NaCl, 2.4 mM KCl, and 0.9 mM MgCl2 at pH 8.0 and equilibrated to room temperature).
The HDAC4 catalytic domain enzyme is human catalytic domain HDAC4 protein (amino acids 648-1032) with a C-terminal 6× histidine tag, produced by BioFocus. A working solution of enzyme is prepared from a 500 μg/mL stock aliquot of HDAC4 catalytic domain (thawed on ice) diluted to 0.2 μg/mL with assay buffer (50 mM Tris-HCl, 137 mM NaCl, 2.7 mM KCl, and 1 mM MgCl2 at pH 8 and equilibrated to room temperature) just prior to the addition of the enzyme to the assay.
5× (50 μM) substrate is prepared just prior to the addition to the assay. A 1 mM substrate stock is made by diluting a 100 mM Boc-Lys(Tfa)-AMC in DMSO solution 1:100 by adding it drop-wise to assay buffer (equilibrated to room temperature) while vortexing at slow speed to prevent precipitation. The 5× substrate is prepared by diluting the 1 mM substrate solution 1:20 by adding it drop-wise to assay buffer (equilibrated to room temperature) while vortexing at slow speed to prevent precipitation.
3× (30 μM) Developer/Stop Solution is prepared just prior to addition to the plate by diluting a stock solution of 10 mM reference compound 1:333 in 25 mg/mL trypsin (PAA Laboratories Ltd.) equilibrated to room temperature.
5 μL of each solution of 1:20 diluted compound from above is transferred to a clear bottomed, black, 384-well assay plate using the Bravo or the Janus (384-well MDT head from Perkin Elmer). Using a 16-channel Matrix multi-channel pipette, 35 μL of the working solution of HDAC4 catalytic domain enzyme (0.2 μg/mL in assay buffer) is transferred to the assay plate. […] The assay plate is then shaken for two minutes on an orbital shaker at 900 rpm (rotations per minute). Next the plate is incubated for 15 minutes at 37° C. The reaction is stopped by adding 25 μL of 3× (30 μM) developer/stop solution to the assay plates using either the Bravo, Janus or a 16-channel Matrix multi-channel pipette. Assay plates are then shaken for 5 minutes on an orbital shaker at 1200 rpm. Next, the assay plates are incubated at 37° C. for 1 hour in a tissue culture incubator. Finally, the fluorescence is measured (Excitation: 355 nm, Emission: 460 nm) using PerkinElmer EnVision in top read mode.

IC50 [1]: 220 nM
IC50 [2]: 530 nM
SMILES: Cc1c(F)cccc1C1(C(=O)NO)Cc2nc(-c3cccc(F)c3)sc2C1 (single isomer, unassigned) [Example 65, E2-(abs)-5-(3-fluoro-2-methylphenyl)-2-(3-fluorophenyl)-N-hydroxy-5,6-dihydro-4H-cyclopenta[d]thiazole-5-carboxamide]
